# pIC50: −log10 of the molar value.
# Amino acid sequences for entries named in this document (tags omitted). A change or cut given only in a name is not applied to a line headed by its entry.
# UniProt O00329: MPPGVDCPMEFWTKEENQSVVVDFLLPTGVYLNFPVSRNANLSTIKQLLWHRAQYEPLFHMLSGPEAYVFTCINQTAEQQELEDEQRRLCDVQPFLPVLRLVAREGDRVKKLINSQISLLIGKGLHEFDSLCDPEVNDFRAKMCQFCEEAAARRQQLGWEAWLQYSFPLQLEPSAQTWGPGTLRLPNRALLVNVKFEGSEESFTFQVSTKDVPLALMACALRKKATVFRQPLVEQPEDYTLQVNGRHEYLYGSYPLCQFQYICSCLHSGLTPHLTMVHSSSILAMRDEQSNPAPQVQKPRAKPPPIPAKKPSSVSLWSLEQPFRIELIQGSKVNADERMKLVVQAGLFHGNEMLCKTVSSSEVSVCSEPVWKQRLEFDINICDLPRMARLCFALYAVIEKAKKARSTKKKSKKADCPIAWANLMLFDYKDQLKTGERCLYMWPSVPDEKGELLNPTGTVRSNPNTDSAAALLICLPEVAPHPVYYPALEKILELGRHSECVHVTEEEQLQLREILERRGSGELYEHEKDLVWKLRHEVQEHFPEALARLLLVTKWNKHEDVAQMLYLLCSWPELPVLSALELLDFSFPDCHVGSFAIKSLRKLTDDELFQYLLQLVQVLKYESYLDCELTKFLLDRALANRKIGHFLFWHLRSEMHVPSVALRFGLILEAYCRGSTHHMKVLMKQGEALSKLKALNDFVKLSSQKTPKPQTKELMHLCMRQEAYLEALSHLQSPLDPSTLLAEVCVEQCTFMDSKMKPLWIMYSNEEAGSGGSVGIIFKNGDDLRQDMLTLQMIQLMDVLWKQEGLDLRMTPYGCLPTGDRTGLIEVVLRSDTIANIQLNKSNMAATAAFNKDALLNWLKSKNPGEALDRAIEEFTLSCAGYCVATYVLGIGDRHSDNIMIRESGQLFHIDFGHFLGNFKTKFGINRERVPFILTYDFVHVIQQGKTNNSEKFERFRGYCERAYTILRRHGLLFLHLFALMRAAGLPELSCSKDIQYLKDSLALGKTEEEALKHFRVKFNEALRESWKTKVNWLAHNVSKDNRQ
# Molecular target: PI3-kinase p110-delta/p85-alpha (Homo sapiens, UniProt O00329)
# Assay: Inhibition of N-terminal His6-tagged recombinant full-length human p110delta/untagged recombinant full length p85alpha expressed in baculovirus infected Sf21 cells using phosphatidylinositol as substrate in presence of gamma-32P-ATP after 5 mins by thin layer chromatographic method
row,Compound,pIC50
1,Cc1ccccc1-n1c(Cn2nc(-c3cc(O)cc(F)c3)c3c(N)ncnc32)cc2cccc(C)c2c1=O,> 7.00
2,CC(=O)Nc1nc2ccc(-c3nn(Cc4cc5cccc(C)c5c(=O)n4-c4ccccc4C)c4ncnc(N)c34)cc2s1,> 7.00

# Source: ChEMBL document CHEMBL3879901, “Substituted isoquinolin-1(2H)-ones, and methods of use thereof” (2012)
